OPERA 2.9 data: water solubility values

Water solubility is log10 of mol/L, nominally at 25 °C; higher is more soluble. "n/a" marks a cell with nothing listed here.

structure (SMILES),name,water solubility (log10 mol/L)
Cc1ccccc1NC(=O)c1cc2ccccc2c(N=Nc2cc(Cl)c(Cl)cc2Cl)c1O,C.I. Pigment Red 112,-7.694
N.N.O=C(O)CCCCC(C(=O)[O-])C(=O)[O-].[Pt+2],n/a,-1.635
CC(C)c1ccc(N)cc1,Cumidine,-1.787
CC(OC(=O)NCC1(CC(=O)O)CCCCC1)OC(=O)C(C)C (centres undefined),Gabapentin enacarbil,-2.819
C[C@@H]1O[C@@H](Oc2c(-c3ccc(O)c(O)c3)oc3cc(O)cc(O)c3c2=O)[C@H](O)[C@H](O)[C@H]1O,Quercitrin,-3.845
N[C@@H]1[C@@H](O)[C@H](O)[C@@H](CO)O[C@H]1O,Glucosamine,0.265
CCOC(=O)C(CCc1ccccc1)NC1CCCN2CCCC(C(=O)O)N2C1=O.O (centres undefined),Cilazapril monohydrate,-2.614
CCCCNC(=O)[C@@H](O)[C@@H](O)[C@H](O)[C@@H](O)C(=O)NCCCC,D-Glucaric acid bis-butylamide,-2.108
FC(F)(Cl)c1ccc(C(F)(F)Cl)cc1,"1,4-Bis(chlorodifluoromethyl)benzene",-5.56
Cc1ccc(NC(=O)N(C)C)cc1,"Urea, N,N-dimethyl-N'-(4-methylphenyl)-",-1.64
Nc1c(Cl)c(Cl)c(N)c2c1C(=O)c1ccccc1C2=O,n/a,-6.764
COC(CNC(=O)N(CCCl)N=O)n1c(=O)[nH]cc(F)c1=O (centres undefined),n/a,-1.926
CCCc1nc2c(C)cc(-c3nc4ccccc4n3C)cc2n1Cc1ccc(-c2ccccc2C(=O)O)cc1,Telmisartan,-5.167
C[C@H](CCC[C@H](C)C(=O)O)C(=O)O,n/a,-0.932
CC1(O)[C@H](O)[C@@H](O)C(O)[C@@H](O)[C@@H]1O (some centres not stated),Mytilitol,-1.655
CC(C)SC(C)C,"Propane, 2,2'-thiobis-",-2.24
CNS(=O)(=O)c1cc(OC)c(N=Nc2c(O)c(C(=O)Nc3ccc4[nH]c(=O)[nH]c4c3)cc3ccccc23)cc1C,n/a,-8.217
OC(=Nc1ccccc1)NC1CCCCC1,n/a,-3.16
CCCCCCCCCCC(CCCCCCCC)COC(=O)CCCCCCCC(=O)OCC(CCCCCCCC)CCCCCCCCCC (centres undefined),"Nonanedioic acid, 1,9-bis(2-octyldodecyl) ester",-8.273
CC(C)(C)CC(C)(C)c1cc(Cc2cc(C(C)(C)CC(C)(C)C)cc(-n3nc4ccccc4n3)c2O)c(O)c(-n2nc3ccccc3n2)c1,Bisoctrizole,-7.974
COc1ccc([C@@H]2CC(=O)c3c(O)cc(O[C@@H]4O[C@H](CO[C@@H]5O[C@@H](C)[C@H](O)[C@@H](O)[C@H]5O)[C@@H](O)[C@H](O)[C@H]4O)cc3O2)cc1O,Hesperidin,-4.935
CCCCn1c(O)cc(C)c(C#N)c1=O,n/a,-2.273
Cl.N=C1C=CC(=C(c2ccc(N)cc2)c2ccc(N)cc2)C=C1,C.I. Basic Red 9 monohydrochloride,-1.979
CS(=O)(=O)C(S(C)(=O)=O)S(C)(=O)=O,Tris(methylsulfonyl)methane,-3.268
O=P(O)(Oc1ccc2ccccc2c1)Oc1ccc2ccccc2c1,Dinaphthalen-2-yl hydrogen phosphate,-2.942
COc1ccccc1N=Nc1c(O)ccc2ccccc12,Solvent Red 1,-8.932
Cc1cc(-c2ccc(/N=N/c3cc(S(=O)(=O)[O-])c4ccccc4c3N)c(C)c2)ccc1/N=N/c1cc(S(=O)(=O)[O-])c2ccccc2c1N.[Na+].[Na+],C.I. Direct Red 2,-1.559
CCCOC(=O)C(C)OC(C)=O (centres undefined),Propyl 2-acetoxypropanoate,-0.64
COc1ccc(C(C)=O)cc1,4'-Methoxyacetophenone,-1.86
CCc1ccncc1,4-Ethylpyridine,0
CCN(CC)C(=O)C(C)OC(=O)c1ccccc1 (centres undefined),1-(Diethylamino)-1-oxopropan-2-yl benzoate,-2.281
COC(=O)c1csc(C)c1S(=O)(=O)NC(=O)n1nc(OC)n(C)c1=O,Thiencarbazone-methyl,-2.951
CC(=O)OCCC(C)OC(C)=O (centres undefined),"1,3-Butanediol diacetate",-0.542
O=S(=O)([O-])c1c(/N=N/c2c(O)ccc3ccccc23)ccc2ccccc12.O=S(=O)([O-])c1c(/N=N/c2c(O)ccc3ccccc23)ccc2ccccc12.[Ba+2],n/a,-5.839
CCC(COC(=O)CCCCCCCCCCCCCCC(C)C)(COC(=O)CCCCCCCCCCCCCCC(C)C)COC(=O)CCCCCCCCCCCCCCC(C)C,n/a,-7.271
C=CCNC(=S)NNc1ccc([N+](=O)[O-])cc1,n/a,-2.911
CCC#CC(C)(C)C,"3-Hexyne, 2,2-dimethyl-",-3.755
O=C(O)c1cc(Oc2ccc(Cl)cc2Cl)ccc1[N+](=O)[O-],"Benzoic acid, 5-(2,4-dichlorophenoxy)-2-nitro-",-2.52
Cc1c(NC(=O)NCc2cccc(CNC(=O)Nc3cccc(NC(=O)OCCCCCCCCCCC(C)C)c3C)c2)cccc1NC(=O)OCCCCCCCCCCC(C)C,n/a,-5.973
Clc1ccccc1Oc1ccc(Cl)c(Cl)c1Cl,n/a,-6.74
CCN(CCCc1ccccc1)CCCc1ccccc1,Alverine,-5.467
O=C(O)CCS(=O)(=O)CCC(=O)O,"Propionic acid, 3,3'-sulfonyldi-",-1.967
Nc1nc(=O)c2nccnc2[nH]1,2-Amino-4-hydroxypteridine,-2.962

Extract of 7 entries:

{"smiles": "Nc1nc(=O)c2nccnc2[nH]1", "name": "2-Amino-4-hydroxypteridine", "water solubility (log10 mol/L)": "-2.962"}
{"smiles": "CCOC(=O)C(CCc1ccccc1)NC1CCCN2CCCC(C(=O)O)N2C1=O.O", "stereo": "centres undefined", "name": "Cilazapril monohydrate", "water solubility (log10 mol/L)": "-2.614"}
{"smiles": "N.N.O=C(O)CCCCC(C(=O)[O-])C(=O)[O-].[Pt+2]", "water solubility (log10 mol/L)": "-1.635"}
{"smiles": "FC(F)(Cl)c1ccc(C(F)(F)Cl)cc1", "name": "1,4-Bis(chlorodifluoromethyl)benzene", "water solubility (log10 mol/L)": "-5.56"}
{"smiles": "CCC(COC(=O)CCCCCCCCCCCCCCC(C)C)(COC(=O)CCCCCCCCCCCCCCC(C)C)COC(=O)CCCCCCCCCCCCCCC(C)C", "water solubility (log10 mol/L)": "-7.271"}
{"smiles": "CCCc1nc2c(C)cc(-c3nc4ccccc4n3C)cc2n1Cc1ccc(-c2ccccc2C(=O)O)cc1", "name": "Telmisartan", "water solubility (log10 mol/L)": "-5.167"}
{"smiles": "CC(=O)OCCC(C)OC(C)=O", "stereo": "centres undefined", "name": "1,3-Butanediol diacetate", "water solubility (log10 mol/L)": "-0.542"}

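These are experimental values that the OPERA curators gathered from public databases to train and test their QSAR models. One number stands for a compound and property, with no spread given. How each value was measured is not recorded, so precision varies. Where a salt, mixture or single isomer is drawn, the source does not say that exactly this form was tested. Unmarked limits or estimates from the upstream databases cannot be ruled out.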

Source: data files of OPERA 2.9 (Mansouri et al.), github.com/kmansouri/OPERA.